This assay addresses CB1 (Mus musculus, UniProt P47746). Put plainly: [35S]GTPγS binding to CB1 in C57 mouse cerebellum membranes. The class given is biochemical. Conditions: against CP55,940, mouse cerebellum. (In general: GTPγS resists hydrolysis and so accumulates on activated G proteins.)

Sequences of proteins named here, by UniProt entry; tags and fusion partners are left off.
UniProt P47746, whole entry: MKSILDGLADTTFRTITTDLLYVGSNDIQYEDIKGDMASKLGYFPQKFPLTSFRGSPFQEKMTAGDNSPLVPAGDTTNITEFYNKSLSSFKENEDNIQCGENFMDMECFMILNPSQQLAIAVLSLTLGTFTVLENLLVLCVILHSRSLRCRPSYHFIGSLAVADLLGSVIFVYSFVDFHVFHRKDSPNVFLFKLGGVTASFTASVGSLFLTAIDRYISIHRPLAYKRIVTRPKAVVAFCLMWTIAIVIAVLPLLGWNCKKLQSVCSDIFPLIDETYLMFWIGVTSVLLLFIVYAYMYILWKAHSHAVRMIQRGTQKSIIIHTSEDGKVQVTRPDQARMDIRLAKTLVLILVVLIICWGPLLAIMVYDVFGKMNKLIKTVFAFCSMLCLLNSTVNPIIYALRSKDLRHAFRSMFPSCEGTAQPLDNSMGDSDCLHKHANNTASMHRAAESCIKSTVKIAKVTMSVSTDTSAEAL

Turning to `Cc1c(C(=O)NN2CCCCC2)nn(-c2ccc(Cl)cc2Cl)c1-c1ccc(Cl)cc1` [rimonabant], the “Mode of antagonism of [35S]-GTPγS binding” value is “competitive antagonism was demonstrated”.

The values above are taken from article PMC5322940 (Cell, 2016).
